Assay results as given in ChEMBL document CHEMBL1150797 (Antimicrob Agents Chemother, 2007).

Experiment: clinical
Conditions: human, in vivo, po, 450 mg

Work on `CO[C@H]1/C=C/O[C@@]2(C)Oc3c(C)c(O)c4c(O)c(c(/C=N/N5CCN(C)CC5)c(O)c4c3C2=O)NC(=O)/C(C)=C\C=C\[C@H](C)[C@H](O)[C@@H](C)[C@@H](O)[C@@H](C)[C@H](OC(C)=O)[C@@H]1C` [RIFAMPIN] yielded a Cmax of 10500 ng/mL.
